Key:
[1] = screened with a sieve (1.00 mm, No. 18), poured into glass graduated measuring cylinder, apparent volume
Description: The tops were scraped flat. The apparent volumes were recorded. The bulk densities were calculated.

[2] = crystal screened with 200-mesh sieve, filled into capsules; average of absolute content difference values of each capsule vs average content

| Substance | Bulk density [1] | Average content difference [2] |
| --- | --- | --- |
| nicotinamide mononucleotide dimethyl sulfoxide solvate crystal (form 2) | 0.22 g/mL | – |
| nicotinamide mononucleotide-isonicotine cocrystal [Cocrystal in example 1] | 0.68 g/mL | 5.5% |

From US20220402961A1, “NICOTINAMIDE MONONUCLEOTIDE-ISONICOTINE COCRYSTAL AND COMPOSITION THEREOF” (BONTAC BIO-ENGINEERING(SHENZHEN) CO.,LTD, priority 2021, published 2022)
